pEC50, pIC50: −log10 of the molar value. Values joined by “and” are separate entries in the source; they are usually repeats but may differ in a detail not shown here. Identical values can stand only once. Like-named read-outs stand apart in the source and are kept apart here.
What was measured:
BE(2)-C = experiment: RealTime-Glo MT cell viability assay; type: cell-based, Human
CHP212 = experiment: RealTime-Glo MT cell viability assay; type: cell-based, Human
IMR-32 = experiment: RealTime-Glo MT cell viability assay; type: cell-based, Human
KELLY = experiment: RealTime-Glo MT cell viability assay; type: cell-based, Human
[1] = test system: NBL01-1116 patient-derived neuroblastoma cells; experiment: RealTime-Glo MT cell viability assay; type: cell-based, Human
[2] = test system: NBL16-0118 patient-derived neuroblastoma cells; experiment: RealTime-Glo MT cell viability assay; type: cell-based, Human
SK-N-SH = experiment: RealTime-Glo MT cell viability assay; type: cell-based, Human
XIAP (NanoLuc-XIAP) = XIAP (NanoLuc-XIAP) (Homo sapiens, UniProt P98170); experiment: NanoBRET XIAP target engagement assay; type: binding; conditions: read-out: apparent intracellular affinity to XIAP (EC50), NanoBRET tracer displacement
Description: To better understand the mechanisms by which these compounds target XIAP in high-risk neuroblastoma, binding interactions between the antagonists and XIAP were first determined in BE(2)-C and KELLY cells using a NanoBRET quantitative target engagement assay. […] It was worth noting that BV6 bound more strongly to XIAP than A4 with the following apparent intracellular affinities determined—0.21 µmol/L (BV6) versus 10.7 µmol/L (A4) in BE(2)-C and 0.30 µmol/L (BV6) versus 9.1 µmol/L (A4) in KELLY (Fig. 3A). […]
FIGURE 3 Binding and degradation of XIAP by A4 is necessary for targeting high-risk neuroblastoma cells. […] BRET signal was measured at 2 hours after treatment using a Tecan Infinite 200 Pro equipped with NanoBRET dual-filters (donor 460 nm and acceptor 618 nm) and determined via the formula (BRET ratio = values at 618 nm/values at 460 nm). […] Cells were treated with increasing dose of A4 or BV6 and luminescence was measured continuously in real time for 2 hours. Luminescence values were normalized to DMSO vehicle control and degradation profiles were generated using GraphPad Prism. Values were expressed as mean ± SD of three independent experiments conducted in duplicates. […]
The quantification and determination of XIAP target engagement with test compounds was performed via Promega’s NanoBRET XIAP target engagement assay. […]

Chains of the proteins cited; added tags and fusions are not shown.
UniProt P98170, whole entry: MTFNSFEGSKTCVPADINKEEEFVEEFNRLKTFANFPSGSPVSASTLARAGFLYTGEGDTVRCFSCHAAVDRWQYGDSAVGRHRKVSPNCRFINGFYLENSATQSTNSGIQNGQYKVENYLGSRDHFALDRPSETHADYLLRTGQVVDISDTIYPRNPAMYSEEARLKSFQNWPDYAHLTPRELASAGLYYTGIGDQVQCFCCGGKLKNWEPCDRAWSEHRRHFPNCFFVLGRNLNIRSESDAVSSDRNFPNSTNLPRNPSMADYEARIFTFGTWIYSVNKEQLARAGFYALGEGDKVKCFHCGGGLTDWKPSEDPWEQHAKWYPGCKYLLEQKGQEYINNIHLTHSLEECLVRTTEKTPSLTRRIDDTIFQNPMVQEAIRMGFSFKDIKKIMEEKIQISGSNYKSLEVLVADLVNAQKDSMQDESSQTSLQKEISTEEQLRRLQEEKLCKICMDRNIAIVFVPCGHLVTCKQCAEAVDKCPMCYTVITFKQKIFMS

endogenous XIAP = endogenous XIAP (Homo sapiens, UniProt P98170); experiment: Degradation of endogenous luciferase-tagged XIAP (HiBiT/LgBiT), real-time luminescence; type: cell-based; conditions: for DC50: read-out: DC50, degradation curve at 2h, 2 hours
XIAP = XIAP (Homo sapiens, UniProt P98170); experiment: NMR 1H-15N-HSQC of XIAP with A4; conditions: chemical shift perturbations, absence or presence of A4
Method: Uniformly ^13C,^15N-labeled XIAP of 0.8–1.0 mmol/L concentration was used for nuclear magnetic resonance (NMR) studies. NMR experiments were carried out at 298 K (25°C) on a Bruker Avance spectrometer with a proton frequency of 600 or 700 MHz and equipped with a cryoprobe. Sequence-specific assignment was obtained on the basis of the following experiments including ^1H-^15N-HSQC, HNCA, HNCACB, HN(CO)CA, HN(CO)CACB, and HNCO. Spectra were acquired using standard pulses from Topspin (version 2.1). To determine XIAP interaction with small molecule A4, ^1H-^15N-HSQC experiment was performed using 50 mmol/L of A4 compound dissolved in DMSO and 0.5 mmol/L of ^15N-labeled XIAP. The ^1H-^15N-HSQC spectra of XIAP in the absence and presence of different amounts of A4 compounds were acquired, processed, and analyzed. The collected data were processed with NMRPipe ([23]) and analyzed with NMRView ([24]).
To better understand the mechanisms by which these compounds target XIAP in high-risk neuroblastoma, binding interactions between the antagonists and XIAP were first determined in BE(2)-C and KELLY cells using a NanoBRET quantitative target engagement assay. […]

With `COC(=O)c1[nH]c2ccc(Cl)cc2c1NC(=O)CN1CCN(Cc2ccccc2)CC1` the pIC50 (BE(2)-C; 24 hours) was 5.23, the pIC50 (BE(2)-C; 48 hours) was 5.35 and the pIC50 (BE(2)-C; 72 hours) was 5.43. The pIC50 (CHP212; CHP212, 48 hours) was 5.11, the pIC50 (CHP212; CHP212, 72 hours) was 5.12 and the pIC50 (IMR-32; IMR-32, 24 hours) was 4.92. It also gave a pIC50 (IMR-32; IMR-32, 48 hours) of 5.10, a pIC50 (IMR-32; IMR-32, 72 hours) of 5.19 and a pIC50 (KELLY; 24 hours) of 5.32. The pIC50 (KELLY; 48 hours) was 5.41, the pIC50 (KELLY; 72 hours) was 5.48 and the pIC50 ([1]; NBL01-1116, 24 hours) was 4.70. For the same compound, the pIC50 ([1]; NBL01-1116, 48 hours) was 4.71, the pIC50 ([1]; NBL01-1116, 72 hours) was 4.69 and the pIC50 ([2]; NBL16-0118, 24 hours) was 5.70. For the same compound, the pIC50 ([2]; NBL16-0118, 48 hours) was 5.66, the pIC50 ([2]; NBL16-0118, 72 hours) was 5.62 and the pIC50 (SK-N-SH; 24 hours) was 4.82. The pIC50 (SK-N-SH; 48 hours) was 4.89, the pIC50 (SK-N-SH; 72 hours) was 4.94 and the pEC50 (XIAP (NanoLuc-XIAP); BE(2)-C cells) was 4.97. For the same compound, the pEC50 (XIAP (NanoLuc-XIAP); KELLY cells) was 5.04, the “time to rapid degradation of XIAP posttreatment” value (endogenous XIAP; BE(2)-C and KELLY cells) was 10 to 15 min and the DC50 (endogenous XIAP; BE(2)-C) was 22.3 µM. The DC50 (endogenous XIAP; KELLY) was 3.94 µM and 3.9 µM and the “interaction with XIAP by 1H-15N-HSQC NMR” value (XIAP) was “direct interaction between A4 and XIAP”.

From article PMC10681007, “Targeted Degradation of XIAP is Sufficient and Specific to Induce Apoptosis in MYCN-overexpressing High-risk Neuroblastoma” (Cancer Research Communications, 2023)
